Laboratory results published in patent US12583868B2, “JAK inhibitors and methods for synthesizing and using thereof” (GALDERMA HOLDING SA, priority 2020, dated 2026).

Legend:
[1] = system: p-STAT3Y705 in skin; assay: In vivo pharmacodynamy model: IL-6 induced Phospho-STAT3, topical; set-up: species or system BALB/c ByJ Rj mice; details: topical 1 mM, PG/EtOH 3/7
[2] = Human skin ex vivo: flux through skin and dermis concentration (Franz cells); type: in vitro ADME; details: PG/H2O cream 1 mg/mL, human skin
Procedure: Flux through skin and dermis concentration were measured during 6-24 h (ng/cm^2/h) after disposition of the test compound 2.7 mM in PG/H2O cream 1 mg/mL. Human dermatomed skin (frozen), 350-500 μm thick were used in diffusion cells system Franz cells 1.76 cm^2 maintained at 32±1° C. after equilibration. Skin integrity was confirmed by TEWL <20 g/m^2/h. 3 donors were used for each test. The compound was formulated in modified aqueous British pharmacopoeia cream pH6 PG 14% and applied 5 mg/cm^2 by weighing. Receptor fluid containing 4% BSA in PBS 10 mM was maintained under agitation and was sampled along with dermis sampled at 6 h and 24 h after exposure. 5 Strips were used to remove carefully the excess of formulation and were not dosed.

N#CC[C@H](C1CCCC1)n1cc(-c2ncnc3[nH]ccc23)cn1 [Ruxolitinib, reference compound]
PD/IL6 mouse top @1 mM % inh vs vehicle [1]: 60%
dermis concentration [2]: 1.9 µM
